# Test results as given in PubChem BioAssay AID652083 (The Scripps Research Institute Molecular Screening Center, 2013).
# This is one part of the list. Activity calls are given as the source filed them.
# Test system: KV channel
# Test: PubChem AID 652083
# Settings: CEREP radioligand binding panel, % inhibition at 10 uM, stronger effect = higher value
smiles,measurement,value
COC(=O)c1cc(Br)cnc1N1CCC(NC2CCCCC2)C(O)C1 (stereo unspecified),inhibition of specific binding,inactive: -15%
